Common to all, as to type: cell-based
The test system of one test is ANGPTL3. The test is described as follows: RNA-seq of ANGPTL3 expression in compound-treated primary human hepatocytes. As to conditions: additional compounds (Table 13). The protocol:
(§1) Human hepatocytes were obtained from two donors from Massachusetts General Hospital, namely MGH54 and MGH63, and one donor from Lonza, namely HUM4111B. Cryopreserved hepatocytes were cultured in plating media for 16 hours, transferred to maintenance media for 4 hours. Cultured on serum-free media for 2 hours, then a compound was added. The hepatocytes were maintained on the serum-free media for 16 hours prior to gene expression analysis. Primary human hepatocytes were stored in the vapor phase of a liquid nitrogen freezer (about −130° C.).
(§2) Human hepatocytes cultured as described above were plated in 24-well format, adding 375,000 cells per well in a volume of 500 ul plating medium. Four hours before treatment, cells were washed with PBS and the medium was changed to either: fresh maintenance medium (complete) or modified maintenance medium.
Compound stocks were prepared at 1000× final concentration and added in a 2-step dilution to the medium to reduce risk of a compound precipitating out of solution when added to the cells, and to ensure reasonable pipetting volumes. One at a time, each compound was first diluted 10-fold in warm (about 37° C.) modified maintenance medium (initial dilution=ID), mixed by vortexing, and the ID was diluted 100-fold into the cell culture (e.g. 5.1 ul into 1 well of a 24-well plate containing 0.5 mL medium). The plate was mixed by carefully swirling and after all wells were treated and returned to the incubator overnight. If desired, separate plates/wells were treated with vehicle-only controls and/or positive controls. If using multi-well plates, controls were included on each plate. After about 18 hours, cells were harvested for further analysis, e.g., ChIP-seq, RNA-seq, ATAC-seq, etc. […]
(§3) For mRNA isolation and library prep, the NEBNext Poly(A) mRNA Magnetic Isolation Module and Directional Prep kit was used. RNA isolated from cells above was quantified, and prepared in […] of each sample in 50 μl of nuclease-free water. […]
All pass filter reads from each sample were mapped against the human genome (assembly GRCh38/GCA_000001405.15 “no alt” analysis set merged with hs38d1/GCA_000786075.2) using two pass mapping via STAR version 2.5.3a (alignment parameters alignIntronMin=20; alignIntronMax=1000000; outFilterMismatchNmax=999; outFilterMismatchNoverLmax=0.05; outFilterType=BySJout; outFilterMultimapNmax=20; alignSJoverhangMin=8; alignSJDBoverhangMin=1; alignMatesGapMax=1000000) (Dobin et al., Bioinformatics (2012) 29(1):15-21). […] Standard QC were applied (read integrity, mapping statistics, library complexity, fragment bias) to remove unsatisfactory samples.

Another test relates to SLC37A4. Briefly: RNA-seq of SLC37A4 expression in compound-treated primary human hepatocytes. As for the experimental part: as §1, §2
Compound stocks were prepared at 1000× final concentration and added in a 2-step dilution to the medium to reduce risk of a compound precipitating out of solution when added to the cells, and to ensure reasonable pipetting volumes. […]
as §3

Another test relates to UGT1A1. Briefly: RNA-seq of UGT1A1 expression in compound-treated primary human hepatocytes. As for the experimental part:
as §1, §2
Compound stocks were prepared at 1000× final concentration and added in a 2-step dilution to the medium to reduce risk of a compound precipitating out of solution when added to the cells, and to ensure reasonable pipetting volumes. One at a time, each compound was first diluted 10-fold in warm (about 37° C.) modified maintenance medium (initial dilution=ID), mixed by vortexing, and the ID was diluted 100-fold into the cell culture (e.g. 5.1 ul into 1 well of a 24-well plate containing 0.5 mL medium). […]
as §3
Standard QC were applied (read integrity, mapping statistics, library complexity, fragment bias) to remove unsatisfactory samples. […] RNA-seq signals were also normalized by read depth and visualized using the UCSC browser. […]
RNA-seq was performed to determine the effects of the compounds on the expression of the target genes in hepatocytes. Fold change was calculated by dividing the level of expression in the cell system that had been perturbed by the level of expression in an unperturbed system. […]

The test system of the next test is SERPINC1. Briefly: RNA-seq of SERPINC1 expression in compound-treated primary human hepatocytes. Particulars: significance FPKM ≥1, log 2(fold change) ≥0.5, q-value ≤0.05. The protocol:
(§4) Human hepatocytes were obtained from two donors from Massachusetts General Hospital, namely MGH54 and MGH63, and one donor from Lonza, namely HUM4111B. Cryopreserved hepatocytes were cultured in plating media for 16 hours, transferred to maintenance media for 4 hours. Cultured on serum-free media for 2 hours, then a compound was added. The hepatocytes were maintained on the serum-free media for 16 hours prior to gene expression analysis. Primary human hepatocytes were stored in the vapor phase of a liquid nitrogen freezer (about -130° C.). Human hepatocytes cultured as described above were plated in 24-well format, adding 375,000 cells per well in a volume of 500 ul plating medium. Four hours before treatment, cells were washed with PBS and the medium was changed to either: fresh maintenance medium (complete) or modified maintenance medium. […] RNA isolated from cells above was quantified, and prepared in […] of each sample in 50 μl of nuclease-free water. […] Standard QC were applied (read integrity, mapping statistics, library complexity, fragment bias) to remove unsatisfactory samples. […] RNA-seq signals were also normalized by read depth and visualized using the UCSC browser. […] Fold change was calculated by dividing the level of expression in the cell system that had been perturbed by the level of expression in an unperturbed system.

The test system of the next test is JAG1. Briefly: RNA-seq of JAG1 expression in compound-treated primary human hepatocytes. As for the experimental part: as §4
The test system of a further test is NOTCH2. Briefly: RNA-seq of NOTCH2 expression in compound-treated primary human hepatocytes. As for the experimental part:
as §4

Structures can show the parent of a compound that is named as a salt.

For the molecule `CCN(CC)CCCC(C)Nc1ccnc2cc(Cl)ccc12` (stereo not shown) [Chloroquine Phosphate, Chloroquine phosphate], the “ANGPTL3-LINEAR FOLD CHANGE” value in the test on ANGPTL3 stood at 0.4538.
Same read-out and setting: with `CCCCNc1cc(C(=O)O)cc(S(N)(=O)=O)c1Oc1ccccc1` [Bumetanide] the figure was 0.5.
Turning to `C1=C/COCc2cc(ccc2OCCN2CCCC2)Nc2nccc(n2)-c2cccc(c2)COC/1` [Pacritinib (SB1518), Pacritinib], in the test on SLC37A4, the “SLC37A4 Fold Change (Log2)” value was 0.93 Log2. Further, the “UGT1A1 Fold Change (Log2)” value with UGT1A1 amounted to 1.58 Log2. Moreover, in the test on SERPINC1, the “SERPINC1 Fold Change (Log2)” value was found to be 2.15 Log2.
`O=S(=O)(c1ccccc1)N(CC(F)(F)F)c1ccc(C(O)(C(F)(F)F)C(F)(F)F)cc1` [T0901317]: the “UGT1A1 Fold Change (Log2)” value with UGT1A1 is 0.64 Log2. The “ANGPTL3-LINEAR FOLD CHANGE” value in the test on ANGPTL3 is 2.848.
Take `CCN(CC)Cc1cc(Nc2ccnc3cc(Cl)ccc23)ccc1O` [Amodiaquine dihydrochloride dihydrate]: the “ANGPTL3-LINEAR FOLD CHANGE” value in the test with ANGPTL3 came to 0.4175.
As to `CC1(COc2ccc3c(c2)ncn3-c2ccc3cccc(N4CCC(N)CC4)c3n2)COC1` [Crenolanib], in the test on UGT1A1, the “UGT1A1 Fold Change (Log2)” value is reported as 0.89 Log2. The “SERPINC1 Fold Change (Log2)” value in the test on SERPINC1 came out at 1.31 Log2.

B1: BMP2: BMPR1A agonist/activator, TGF beta signaling; listed twice (protein, UniProt P12643 283-396, looked up)
Bone morphogenetic protein 2: QAKHKQRKRLKSSCKRHPLYVDFSDVGWNDWIVAPPGYHAFYCHGECPFPLADHLNSTNHAIVQTLVNSVNSKIPKACCVPTELSAISMLYLDENEKVVLKNYQDMVVEGCGCR
With B1, the “JAG1 Fold Change (Log2)” value in the test with JAG1 (primary human hepatocytes) was 0.99 Log2. Also, the “Significant modulation of JAG1 (in words)” value in the test with JAG1 (summary of Table 6) is “significantly modulate only JAG1”. Further, the “NOTCH2 Fold Change (Log2)” value in the test on NOTCH2 was found to be 0 Log2.

The values above are taken from patent US20210161997A1, “TREATING DISEASES VIA TARGETED MODULATION OF GENE SIGNALING NETWORKS” (Camp4 Therapeutics Corporation, priority 2018, published 2021).
